Target: the molecule itself
Experiment: negative-stain electron microscopy

B1: mAbGB3.1-enriched sRAGE^HeLa (receptor, human, UniProt Q15109 23-342, looked up)
chain: AQNITARIGEPLVLKCKGAPKKPPQRLEWKLNTGRTEAWKVLSPQGGGPWDSVARVLPNGSLFLPAVGIQDEGIFRCQAMNRNGKETKSNYRVRVYQIPGKPEIVDSASELTAGVPNKVGTCVSEGSYPAGTLSWHLDGKPLVPNEKGVSVKEQTRRHPETGLFTLQSELMVTPARGGDPRPTFSCSFSPGLPRHRALRTAPIQPRVWEPVPLEEVQLVVEPEGGAVAPGGTVTLTCEVPAQPSPQIHWMKDGVPLPLPPSPVLILPEIGPQDQGTYSCVATHSSHGPQESRAVSISIIEPGEEGPTAGSVGGSGLGTLA
modifications: N-glycans enriched for carboxylated, multiantennary glycans
stoichiometry N: ≥ 4

From article PMC2879712 (Journal of cellular biochemistry, 2010)
